According to patent EP0832971B1:

Molecular target: Fcγ receptor (determined with U937 cells)
Assay: Fcγ receptor binding on U937 cells, method of Anderson et al.

Substance | Kd [nM]
CD44γ1 immunoadheson (CD4 residues 1-366 fused to the constant region of human immunoglobulin γ1; product of pRKCD44γ1) (from UniProt P01730 26-391; P01857 1-330) (Fc fusion) | 2.83
CD42γ1 immunoadheson (CD4 residues 1-180 fused to the constant region of human immunoglobulin γ1; product of pRKCD42γ1) (from UniProt P01730 26-205; P01857 1-330) (Fc fusion) | 3.01
